Test results taken from patent US20120276102A1.

Target: murine IL-21R extracellular domain His-Flag fusion protein (murine) (UniProt Q9JHX3)
Assay: competition ELISA; competitor plate-bound AbT

Substance “murine IL-21 (from UniProt Q9ES17 18-146) (ligand)” has a concentration above which binding of mIL-21R to AbT is blocked nearly completely greater than 4 ng/mL.
